Results taken from paper PMC7723054.
The list shows a part of the results.

T1: LIN28A (human?, UniProt Q9H9Z2 1-209)
T1 sequence: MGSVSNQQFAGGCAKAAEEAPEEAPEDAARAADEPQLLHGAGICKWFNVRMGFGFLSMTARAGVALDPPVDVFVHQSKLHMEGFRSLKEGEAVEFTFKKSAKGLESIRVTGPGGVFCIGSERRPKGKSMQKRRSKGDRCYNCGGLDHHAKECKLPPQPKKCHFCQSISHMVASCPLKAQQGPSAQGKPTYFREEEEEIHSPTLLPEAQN

T2: CIRBP (Homo sapiens, UniProt Q14011 1-172)
T2 sequence: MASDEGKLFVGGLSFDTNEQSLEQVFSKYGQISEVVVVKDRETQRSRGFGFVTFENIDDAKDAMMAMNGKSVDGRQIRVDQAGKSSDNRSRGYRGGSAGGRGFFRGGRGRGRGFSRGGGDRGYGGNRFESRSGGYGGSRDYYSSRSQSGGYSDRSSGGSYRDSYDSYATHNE

T3: DHX36 (Homo sapiens, UniProt Q9H2U1 1-1008)
T3 sequence: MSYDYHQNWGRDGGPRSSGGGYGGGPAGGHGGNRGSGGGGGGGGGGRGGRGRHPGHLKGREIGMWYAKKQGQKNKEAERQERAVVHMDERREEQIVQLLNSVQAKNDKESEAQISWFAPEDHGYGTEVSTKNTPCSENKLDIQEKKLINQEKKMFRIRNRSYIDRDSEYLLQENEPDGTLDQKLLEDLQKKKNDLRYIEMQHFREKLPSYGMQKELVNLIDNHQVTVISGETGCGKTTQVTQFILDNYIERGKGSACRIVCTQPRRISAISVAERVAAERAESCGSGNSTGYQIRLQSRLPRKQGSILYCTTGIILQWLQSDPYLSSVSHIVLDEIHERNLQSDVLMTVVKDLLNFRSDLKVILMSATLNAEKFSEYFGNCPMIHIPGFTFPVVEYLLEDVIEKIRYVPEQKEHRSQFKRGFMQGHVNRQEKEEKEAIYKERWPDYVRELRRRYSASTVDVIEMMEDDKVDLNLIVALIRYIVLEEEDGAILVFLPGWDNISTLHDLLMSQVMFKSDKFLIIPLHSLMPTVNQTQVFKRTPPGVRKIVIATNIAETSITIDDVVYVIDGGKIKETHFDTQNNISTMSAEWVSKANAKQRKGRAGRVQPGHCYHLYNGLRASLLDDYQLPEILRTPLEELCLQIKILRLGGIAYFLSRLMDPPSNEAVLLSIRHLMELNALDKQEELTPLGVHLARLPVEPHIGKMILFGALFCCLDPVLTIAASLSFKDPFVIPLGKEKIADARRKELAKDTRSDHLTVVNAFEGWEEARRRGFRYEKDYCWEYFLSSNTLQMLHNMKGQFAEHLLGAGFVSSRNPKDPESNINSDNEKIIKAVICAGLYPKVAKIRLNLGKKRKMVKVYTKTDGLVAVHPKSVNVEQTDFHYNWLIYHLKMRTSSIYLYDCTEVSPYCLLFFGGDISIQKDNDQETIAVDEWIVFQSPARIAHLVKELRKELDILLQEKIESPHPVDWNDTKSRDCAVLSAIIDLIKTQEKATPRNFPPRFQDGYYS

B1: hsa-mir-6134 (structured_RNA)
RNA: GGGAAAAUCGGCUCGCAUACGGCUUUCUGGUGUACGAAGUUUCAGCUGCAUAAAUGAAGCUGAAUGAGCUGAAGCUUCGUGCAC
B2: PARIS_ID39 (structured_RNA)
RNA: GGGACACAGGAGGGACGUCUAUCUAAUCGGUGUACGAAGUUUCAGCAUAUUAACUUCUUAUAAUUUUCUUUUUUUUUCUUUAUGUGUGUGUGCUGAAGCUUCGUGCAC
B3: hsa-mir-134 (structured_RNA)
RNA: GGGAGCUGGAUCGAAGCACACGUAAAGAGGUGUACGAAGUUUCAGCGAGGGGCAUGCACUGUGUUCACCCUGGCUGAAGCUUCGUGCAC
B4: hsa-mir-550b-2 (structured_RNA)
RNA: GGGAACAGGACCAUCACGUCACACGAUCGGUGUACGAAGUUUCAGCAAGACACUAUCUGACAACAACAGGGCUCUUGCUGAAGCUUCGUGCAC
B5: hsa-mir-4524a (structured_RNA)
RNA: GGGACCGACGAGAGCAACUAUCCCAAGCGGUGUACGAAGUUUCAGCCUCACUGCAGAAUUAUUUUGAGGCUGAAGCUUCGUGCAC
B6: hsa-mir-658 (structured_RNA)
RNA: GGGACAGCUCCACACGAGUUUCAUCGCCGGUGUACGAAGUUUCAGCCGCCAGCUCGCUGACAGCACGACUCAGGGCGGCUGAAGCUUCGUGCAC
B7: hsa-mir-551b (structured_RNA)
RNA: GGGAAGUUGGUAAGAACCGACUGAACUCGGUGUACGAAGUUUCAGCUGAGACCUGGUGCAGAACGGGAAGGCGAGCUGAAGCUUCGUGCAC
B8: PARIS_ID23 (structured_RNA)
RNA: GGGAUCAAGCAUUGCCGUUCGAUCCGAUGGUGUACGAAGUUUCAGCGUAGUGAAGUCUGAGAUUUUACUACACCUUCCACUUAUGUGGUCCCACACCACCCGCCUCCCCUGCGCUGAAGCUUCGUGCAC
B9: hsa-mir-3150b (structured_RNA)
RNA: GGGACACGAGCUUGCCCGCGUAUUUACUGGUGUACGAAGUUUCAGCCCCAGCCUUGGCGUUCAGGUGCUGAGGCUGAAGCUUCGUGCAC
B10: hsa-mir-7848 (structured_RNA)
RNA: GGGACGGAAGUCUCGCUGCAACAUACCCGGUGUACGAAGUUUCAGCUAUGCAAAGCUCUGACAGUGUUUCACUUGCUAGCUGAAGCUUCGUGCAC
B11: hsa-mir-4748 (structured_RNA)
RNA: GGGAGCUAGUGUCAUUGUUCCCGGCACUGGUGUACGAAGUUUCAGCUGCUGGUGCUAGAGAGGAAAGCAGCUGAAGCUUCGUGCAC
B12: hsa-mir-5695 (structured_RNA)
RNA: GGGAGAGCUAACGAGUUUCAGAAAGCACGGUGUACGAAGUUUCAGCGCCUCUCUGAGCAUGCAUUCCUGAGACUCGCUGAAGCUUCGUGCAC
B13: hsa-mir-4719 (structured_RNA)
RNA: GGGAAGUGCAGCUGCCUACGAUCUAUCGGGUGUACGAAGUUUCAGCGUGAUUACAUUAAAACUUAAAAUUUCACGCUGAAGCUUCGUGCAC
B14: hsa-mir-5588 (structured_RNA)
RNA: GGGAGAAACGAAAGUAAAACCUCAGGAUGGUGUACGAAGUUUCAGCACUUUUUUUUUUUUUUUUUUUAAUGUUAAAAGUGCUGAAGCUUCGUGCAC
B15: hsa-mir-6760 (structured_RNA)
RNA: GGGACGGCGGGCCACUAUUAUAAGAGUUGGUGUACGAAGUUUCAGCCAGAGUGGGCUCACCUCUCGCCCACACUGGCUGAAGCUUCGUGCAC
B16: hsa-mir-6881 (structured_RNA)
RNA: GGGACCAGGCGAACCUCAACCCAAUGAGGGUGUACGAAGUUUCAGCGGGUCAGGUCUGCAGCCUUGUAUCUGCUGAUCCGCUGAAGCUUCGUGCAC
B17: hsa-mir-196b (structured_RNA)
RNA: GGGAAAUGGGGUUCCUUUGUACGCUAACGGUGUACGAAGUUUCAGCUUGGGAUCCACCUUUCUCUCGAGCUGAAGCUUCGUGCAC
B18: hsa-mir-6780a (structured_RNA)
RNA: GGGAAGCGAGCAAUCCUACGUGGCUACGGGUGUACGAAGUUUCAGCGGAGAGUAUGGUCACAGCAGCAUCCUCCGCUGAAGCUUCGUGCAC
B19: hsa-mir-4481 (structured_RNA)
RNA: GGGACGGGAGUCCCGAUAGAACUUCAUUGGUGUACGAAGUUUCAGCGUUUUUUAAGAGGAAGGGAGACCUAAGCUAGCAGCUGAAGCUUCGUGCAC
B20: G4_(UGGGU)8 (structured_RNA)
RNA: GGGAAUAGUCAAGCAGGGCGACACAUCUGGUGUACGAAGUUUCAGCUGGGUUGGGUUGGGUUGGGUUGGGUUGGGUUGGGUUGGGUGCUGAAGCUUCGUGCAC
B21: hsa-let-7e (structured_RNA)
RNA: GGGACAAGGUCUGUACGCCACAAGGACAGGUGUACGAAGUUUCAGCAUAGUUGAGGAGGACACCCAAGGAGAUCACUAUGCUGAAGCUUCGUGCAC
B22: hsa-mir-2114 (structured_RNA)
RNA: GGGACUUUGAGCUUCCGAACAUGCACGCGGUGUACGAAGUUUCAGCCGGUCGGAUAAUCACAUGACGAGGCUGAAGCUUCGUGCAC

What was measured:
Assay in all cases: FOREST: bead pull-down of RNA structure library v1, barcode microarray; U1A/LIN28A: 20 mM HEPES pH 7.5, 80 mM KCl, 20 mM NaCl, 10% glycerol, 2 mM DTT, 0.1 ug/uL BSA, 4 C; BG4/CIRBP/DHX36: 10 mM Tris-HCl pH 7.5, 100 mM KCl (or LiCl),; high values mean tight binding
U1A = U1A (Homo sapiens, UniProt P09012)
LIN28A = target: T1, LIN28A
CIRBP = target: T2, CIRBP
DHX36 = target: T3, DHX36

Binder | binding signal (U1A) | binding signal (LIN28A) | binding signal (CIRBP) | binding signal (DHX36)
B1 | 1.25 z-score | 0.644 z-score | 0.284 z-score | 0.621 z-score
B2 | 1.33 z-score | 0.135 z-score | 1.52 z-score | 0.918 z-score
B3 | 1.29 z-score | -1.28 z-score | -1.11 z-score | -0.0148 z-score
B4 | 1.28 z-score | 0.823 z-score | 2.07 z-score | 0.414 z-score
B5 | 1.28 z-score | 0.842 z-score | -1.24 z-score | 0.0202 z-score
B6 | 1.28 z-score | 0.447 z-score | 0.278 z-score | -0.325 z-score
B7 | 1.31 z-score | 0.319 z-score | -0.311 z-score | -0.325 z-score
B8 | 2.65 z-score | -0.425 z-score | -1.81 z-score | -0.13 z-score
B9 | 1.33 z-score | 0.549 z-score | -0.325 z-score | 0.288 z-score
B10 | 1.29 z-score | -1.07 z-score | -0.465 z-score | -0.942 z-score
B11 | 1.26 z-score | 0.704 z-score | 0.181 z-score | 1.26 z-score
B12 | 1.3 z-score | -0.374 z-score | -0.00669 z-score | -0.381 z-score
B13 | 1.28 z-score | 0.902 z-score | 1.02 z-score | 0.354 z-score
B14 | 1.31 z-score | -0.562 z-score | 1.04 z-score | 0.281 z-score
B15 | 1.33 z-score | -1.65 z-score | -1.9 z-score | 0.07 z-score
B16 | 1.32 z-score | -0.872 z-score | -0.743 z-score | -0.731 z-score
B17 | 1.26 z-score | -0.575 z-score | -0.0503 z-score | -0.717 z-score
B18 | 1.3 z-score | 0.672 z-score | 0.608 z-score | 0.0197 z-score
B19 | 1.25 z-score | 2.15 z-score | -3.52 z-score | -0.0716 z-score
B20 | 1.28 z-score | 1.77 z-score | 3.7 z-score | 6.68 z-score
B21 | 1.3 z-score | 2.29 z-score | 0.901 z-score | 0.734 z-score
B22 | 2.6 z-score | -0.0484 z-score | -0.126 z-score | -0.656 z-score
